Source: publication PMC5508335 (Journal of Veterinary Internal Medicine, 2017)

Test system: thyroid TT4 response
Assay: TSH stimulation test, serum TT4
Assay type: in vivo, dog
[1] = dogs administered hydrocortisone

rhTSH: thyrotropin (TSH) used for the stimulation test
mean post-rhTSH TT4 concentration [1]: 2.17 µg/dL | time of peak post-rhTSH TT4 concentration [1]: 4 h | mean post-rhTSH TT4 concentration (dogs with NTI): 2.19 µg/dL | time of peak post-rhTSH TT4 concentration (dogs with NTI and dogs without hypothyroidism): 6 h | post-rhTSH TT4 concentration (dogs with hypothyroidism): < 1.0 µg/dL | mean post-rhTSH TT4 concentration (dogs without hypothyroidism): 3.49 µg/dL
